Results as given in patent US12276657B2, “Detection of PAR in the CSF of patients with Parkinson's disease” (The Johns Hopkins University, priority 2017, dated 2025).

Tested on: α-syn PFF injected mice
Conditions: ABT-888 diet 125 mg/kg
[1] = 6 months after intrastriatal α-syn PFF
[2] = 180 days after α-syn PFF injection

Q: Which results are given for `C[C@]1(c2nc3c(C(N)=O)cccc3[nH]2)CCCN1` [ABT-888, veliparib]?
A: TH and DAT levels, western blot [1]: the reduction in TH and DAT levels is prevented; striatal DA and its metabolites, HPLC [1]: but not PARP-1 knockout mice or ABT-888 treated mice; forelimb plus hindlimb and forelimb grip strength [2]: but not in PARP-1 knockout or ABT-888 treated WT mice; pole test [2]: no deficits; loss of DA neurons versus control diet (WT mice, 6 months after intrastriatal α-syn PFF): significantly less loss of DA neurons; α-syn pathology (western blotting, p-α-syn immunostaining) (after intrastriatal α-syn PFF): markedly reduced; PARP activation / PAR levels in brain (single intrastriatal α-syn PFF 5 μg): reduces the formation of α-syn PFF induced increase in PAR levels
